Tests used:
[1] = SDS-PAGE of labelled antibody before and after mild hyperthermia incubation; type: physicochemical; conditions: 7 min at 42 °C
Method: Antibody fractions were identified by absorbance at 280 nm. XenoLight CF 750 NHS (0.5 μmole; ‘XL750’) previously dissolved in anhydrous DMSO (50 μL) was then slowly added with vigorous vortexing. Then mixture was then left stirring at r.t. for 1 h before re-separating on the PD-10, run in DPBS alone. Conjugation appeared to be almost complete (>90%) with little dye retained on the column. The resulting deep blue solution was split into 200 μL portions for storage at −20° C. Estimated final concentration was 5 mg/mL antibody, 0.24 nmol/mL XL750. Absorbance bands for a diluted sample were 280 nm (0.67 AU; protein) and 750 nm (>2 AU; NIRF dye), fluorescence peaked at 785 nm on excitation at 750 nm. Samples of the labelled antibody were analysed by SDS-PAGE using 4-20% tris-glycine non-reducing gels and highlighting protein bands with silver stain (SilverQuest, Sigma Aldrich).

[2] = tested on: IGROV-1 tumours; conditions: mouse, in vivo
[3] = tested on: IGROV-1, SKOV-3 and BT474 cell line tumours; conditions: mouse, in vivo

| Substance | SDS-PAGE differences before and after incubation [1] | NIRF signal of excised heated tumours vs left-hand controls [2] | concentration in the excised tumour [2] | intensity of the NIRF signal maintained in tumours [2] | uptake in left vs right tumours [2] | duration of difference in labelled antibody uptake ([2]; 8 mg/kg) | effect of Her-2 expression level on biodistribution in tumours [3] | time of maximum accumulation in tumours [2] |
| --- | --- | --- | --- | --- | --- | --- | --- | --- |
| XL750-trastuzumab: Trastuzumab conjugated with XenoLight CF 750 NHS NIRF dye | No significant differences | substantially more NIRF signal | smaller increase | at least 7 days | the same in both tumours | more than a week | appeared not to affect the biodistribution | – |
| trastuzumab: monoclonal antibody that binds to HER2/neu receptors | – | – | – | – | – | – | – | 24 to 48 h |
